This test addresses T1, Histone-lysine N-methyltransferase EHMT2 (Homo sapiens, UniProt Q96KQ7).
T1 sequence (Q96KQ7 whole entry): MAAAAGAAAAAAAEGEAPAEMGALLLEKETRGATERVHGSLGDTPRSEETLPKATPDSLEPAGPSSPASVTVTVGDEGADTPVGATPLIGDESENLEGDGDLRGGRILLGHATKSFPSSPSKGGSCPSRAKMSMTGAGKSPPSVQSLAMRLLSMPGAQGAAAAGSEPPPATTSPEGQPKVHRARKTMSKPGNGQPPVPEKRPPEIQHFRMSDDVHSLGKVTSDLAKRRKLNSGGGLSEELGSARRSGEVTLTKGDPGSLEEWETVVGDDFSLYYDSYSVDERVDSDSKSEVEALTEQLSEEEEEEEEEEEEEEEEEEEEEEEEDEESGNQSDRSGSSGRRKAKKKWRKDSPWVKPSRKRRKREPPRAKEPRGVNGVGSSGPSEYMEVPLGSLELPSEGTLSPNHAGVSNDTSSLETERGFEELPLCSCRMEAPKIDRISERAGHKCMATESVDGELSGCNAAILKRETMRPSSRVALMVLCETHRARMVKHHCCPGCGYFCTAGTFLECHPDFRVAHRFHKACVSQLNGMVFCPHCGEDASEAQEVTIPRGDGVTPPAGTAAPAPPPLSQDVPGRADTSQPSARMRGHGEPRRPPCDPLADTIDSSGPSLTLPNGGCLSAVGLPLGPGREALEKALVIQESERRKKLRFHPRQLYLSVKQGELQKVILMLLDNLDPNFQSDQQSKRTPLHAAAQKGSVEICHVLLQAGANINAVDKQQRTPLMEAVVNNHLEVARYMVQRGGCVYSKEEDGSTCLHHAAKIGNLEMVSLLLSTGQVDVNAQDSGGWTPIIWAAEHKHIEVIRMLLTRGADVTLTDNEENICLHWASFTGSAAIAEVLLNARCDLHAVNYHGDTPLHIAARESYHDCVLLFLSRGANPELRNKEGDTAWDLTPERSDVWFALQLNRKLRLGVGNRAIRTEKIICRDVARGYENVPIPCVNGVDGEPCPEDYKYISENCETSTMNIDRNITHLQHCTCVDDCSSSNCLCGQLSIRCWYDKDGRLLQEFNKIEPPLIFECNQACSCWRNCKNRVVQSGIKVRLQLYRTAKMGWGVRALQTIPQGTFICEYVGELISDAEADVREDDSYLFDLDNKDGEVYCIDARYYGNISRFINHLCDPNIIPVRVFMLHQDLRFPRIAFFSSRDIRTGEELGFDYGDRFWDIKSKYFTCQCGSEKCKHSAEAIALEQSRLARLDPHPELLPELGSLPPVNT
Description: Inhibition of recombinant G9a catalytic SET domain (913 to 1193 residues) (unknown origin) expressed in Escherichia coli BL21 (DE3) codon plus RIL assessed as inhibition of methylation activity using biotin-labeled H3 (1 to 25 residues) as substrate and [3H]-SAM after 2 hrs by scintillation proximity assay.

Structures are written as SMILES.

With `COc1cc2nc(N3CCCN(C)CC3)nc(NC3CCN(C)CC3)c2cc1OC`, the IC50 came out at 9 nM.

Usually IC50 stands for the point on the concentration scale where inhibition reaches its midpoint.
